Measured values published in PMC10578352, “Identification of a Protein Arginine Methyltransferase 7 (PRMT7)/Protein Arginine Methyltransferase 9 (PRMT9) Inhibitor” (Journal of Medicinal Chemistry, 2023).

The chains behind the UniProt entries cited, without tags or fusion partners. Residues count along the entry.
UniProt Q99873, 2-371: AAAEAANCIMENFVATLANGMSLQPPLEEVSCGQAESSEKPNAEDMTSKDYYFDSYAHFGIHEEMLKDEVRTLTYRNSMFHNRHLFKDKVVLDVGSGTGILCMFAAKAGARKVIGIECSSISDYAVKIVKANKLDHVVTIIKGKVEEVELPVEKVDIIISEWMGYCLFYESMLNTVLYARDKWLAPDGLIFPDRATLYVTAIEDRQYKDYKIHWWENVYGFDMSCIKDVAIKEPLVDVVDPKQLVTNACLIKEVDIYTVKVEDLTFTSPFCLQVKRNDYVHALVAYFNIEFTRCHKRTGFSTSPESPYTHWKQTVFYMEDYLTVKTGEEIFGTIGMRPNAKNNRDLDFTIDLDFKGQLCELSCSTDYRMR
UniProt O60678, 2-531: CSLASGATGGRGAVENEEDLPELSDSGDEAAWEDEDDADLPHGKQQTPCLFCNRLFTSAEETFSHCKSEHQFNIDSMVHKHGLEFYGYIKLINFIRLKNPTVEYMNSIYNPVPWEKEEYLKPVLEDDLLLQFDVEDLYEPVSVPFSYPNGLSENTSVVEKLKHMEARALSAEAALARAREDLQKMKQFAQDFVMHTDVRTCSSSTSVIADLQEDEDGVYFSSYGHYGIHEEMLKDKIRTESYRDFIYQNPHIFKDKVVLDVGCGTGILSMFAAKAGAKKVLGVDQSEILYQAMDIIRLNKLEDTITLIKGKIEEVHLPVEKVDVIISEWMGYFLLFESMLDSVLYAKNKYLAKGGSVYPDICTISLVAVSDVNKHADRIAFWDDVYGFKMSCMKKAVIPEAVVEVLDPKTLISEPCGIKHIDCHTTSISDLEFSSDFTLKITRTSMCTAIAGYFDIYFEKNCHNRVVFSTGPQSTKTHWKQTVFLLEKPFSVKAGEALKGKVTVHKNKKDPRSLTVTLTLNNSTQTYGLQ
UniProt O14744, 2-637: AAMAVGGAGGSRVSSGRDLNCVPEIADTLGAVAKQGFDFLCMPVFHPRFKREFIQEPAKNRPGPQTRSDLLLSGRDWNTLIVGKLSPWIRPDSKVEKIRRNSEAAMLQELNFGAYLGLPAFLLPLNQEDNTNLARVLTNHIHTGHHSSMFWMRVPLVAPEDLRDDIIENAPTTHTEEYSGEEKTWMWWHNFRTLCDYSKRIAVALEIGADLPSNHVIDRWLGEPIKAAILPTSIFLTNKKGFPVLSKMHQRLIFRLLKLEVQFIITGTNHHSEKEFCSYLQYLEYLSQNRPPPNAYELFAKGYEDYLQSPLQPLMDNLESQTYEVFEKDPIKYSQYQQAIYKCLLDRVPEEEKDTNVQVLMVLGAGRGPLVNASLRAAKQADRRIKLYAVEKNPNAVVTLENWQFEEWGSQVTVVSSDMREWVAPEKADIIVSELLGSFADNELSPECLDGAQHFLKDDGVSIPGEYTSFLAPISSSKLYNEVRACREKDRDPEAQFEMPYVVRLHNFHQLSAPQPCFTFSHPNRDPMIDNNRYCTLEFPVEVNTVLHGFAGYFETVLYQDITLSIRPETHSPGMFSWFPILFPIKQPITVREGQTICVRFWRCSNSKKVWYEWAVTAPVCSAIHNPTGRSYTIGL
UniProt Q96LA8, 2-375: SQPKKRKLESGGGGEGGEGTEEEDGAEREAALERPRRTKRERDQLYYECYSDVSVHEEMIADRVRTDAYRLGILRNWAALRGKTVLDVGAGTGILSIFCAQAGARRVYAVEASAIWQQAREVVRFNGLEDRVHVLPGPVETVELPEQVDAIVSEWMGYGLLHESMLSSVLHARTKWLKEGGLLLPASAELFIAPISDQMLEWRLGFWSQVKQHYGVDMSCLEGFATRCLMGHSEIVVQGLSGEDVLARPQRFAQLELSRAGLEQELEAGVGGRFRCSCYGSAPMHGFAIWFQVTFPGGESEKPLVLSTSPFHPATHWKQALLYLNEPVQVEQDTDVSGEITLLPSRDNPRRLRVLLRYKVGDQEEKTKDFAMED
UniProt Q9NR22, 61-394: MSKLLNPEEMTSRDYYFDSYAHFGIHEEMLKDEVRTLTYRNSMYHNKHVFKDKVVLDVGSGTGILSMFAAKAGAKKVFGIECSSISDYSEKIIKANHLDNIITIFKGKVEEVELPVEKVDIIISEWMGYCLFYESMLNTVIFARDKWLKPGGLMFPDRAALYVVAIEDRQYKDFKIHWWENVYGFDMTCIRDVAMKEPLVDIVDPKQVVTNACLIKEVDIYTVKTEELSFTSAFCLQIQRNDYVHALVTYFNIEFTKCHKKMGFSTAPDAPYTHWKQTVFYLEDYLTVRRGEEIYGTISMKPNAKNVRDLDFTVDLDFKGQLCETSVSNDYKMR

Experiments:
Format in all cases: biochemical
Details in all cases: Figure 2; from IC50 values of ref 31
PRMT1 = target: T1, PRMT1 (Homo sapiens, UniProt Q99873); assay: HotSpot radioisotope-based filter assay, PRMT1
T1 construct: PRMT1 (residues 2–371, C-terminus); with an N-terminal GST-tag; GST (N); purchased Reaction Biology Corporation
Method: (§1) Then, ^3H-SAM (final concentration of 1 μM) was delivered into the reaction mixture to initiate the reaction. After incubation for 60 min at 30 °C, the reaction mixture was delivered to filter-paper for detection (as assessed by scintillation). Data were analyzed using Excel and GraphPad Prism 6.0 software (GraphPad Software Inc., San Diego, CA) for IC50 curve fits using sigmoidal dose vs response - variable slope (four parameters) equations.

PRMT3 = target: T2, PRMT3 (Homo sapiens, UniProt O60678); assay: HotSpot radioisotope-based filter assay, PRMT3
T2 construct: PRMT3 (residues 2–531, C-terminus); with an N-terminal His-tag; His (N); purchased Reaction Biology Corporation
Method: as §1

PRMT4 = target: T3, PRMT4 (Homo sapiens, UniProt Q86X55); assay: HotSpot radioisotope-based filter assay, PRMT4
T3 construct: PRMT4 (residues 2–608, C-terminus); with an N-terminal GST-tag; GST (N); purchased Reaction Biology Corporation
T3 sequence (Q86X55 2-608): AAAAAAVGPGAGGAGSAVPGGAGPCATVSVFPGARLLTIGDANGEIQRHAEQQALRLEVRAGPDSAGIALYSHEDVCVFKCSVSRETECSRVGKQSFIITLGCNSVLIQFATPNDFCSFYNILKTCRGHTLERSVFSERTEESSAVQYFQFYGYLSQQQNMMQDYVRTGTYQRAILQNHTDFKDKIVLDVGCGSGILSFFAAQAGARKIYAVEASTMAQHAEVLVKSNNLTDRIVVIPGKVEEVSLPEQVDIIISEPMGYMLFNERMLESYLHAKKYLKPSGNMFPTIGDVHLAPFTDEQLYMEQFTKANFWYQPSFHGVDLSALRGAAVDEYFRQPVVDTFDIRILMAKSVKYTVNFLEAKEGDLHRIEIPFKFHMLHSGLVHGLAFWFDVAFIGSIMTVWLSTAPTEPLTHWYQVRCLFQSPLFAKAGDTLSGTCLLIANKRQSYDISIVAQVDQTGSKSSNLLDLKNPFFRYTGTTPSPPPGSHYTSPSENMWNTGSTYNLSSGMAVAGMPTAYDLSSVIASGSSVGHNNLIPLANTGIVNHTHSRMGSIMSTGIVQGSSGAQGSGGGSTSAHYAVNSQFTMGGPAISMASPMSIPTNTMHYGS
Method: as §1

PRMT5/MEP50 complex = target: T4, PRMT5/MEP50 complex (Homo sapiens, UniProt O14744); assay: HotSpot radioisotope-based filter assay, PRMT5
T4 construct: residues PRMT5 2–637, C-terminus, and MEP50 2–342, C-terminus; FLAG (N); purchased Reaction Biology Corporation
Method: as §1

PRMT6 = target: T5, PRMT6 (Homo sapiens, UniProt Q96LA8); assay: HotSpot radioisotope-based filter assay, PRMT6
T5 construct: PRMT6 (residues 2–375, C-terminus); with an N-terminal GST-tag; GST (N); purchased Reaction Biology Corporation
Method: as §1

PRMT8 = target: T6, PRMT8 (Homo sapiens, UniProt Q9NR22); assay: HotSpot radioisotope-based filter assay, PRMT8
T6 construct: (residues 61–394, C-terminus); with C- and N-terminal His-tags; His (N); His (C); purchased Reaction Biology Corporation
Method: as §1

selectivity index for PRMT7 over PRMT1 (PRMT1): 2 fold
selectivity index for PRMT7 over PRMT3 (PRMT3): 30 fold
selectivity index for PRMT7 over PRMT4 (PRMT4): 0.17 fold
selectivity index for PRMT7 over PRMT5 (PRMT5/MEP50 complex): 6 fold
selectivity index for PRMT7 over PRMT6 (PRMT6): 115 fold
selectivity index for PRMT7 over PRMT8 (PRMT8): 9 fold
SMILES: COC(=O)c1cc(O)c2cc(NC(=O)NCCCCCCNC(=N)NC[C@H]3O[C@@H](n4cnc5c(N)ncnc54)[C@H](O)[C@@H]3O)ccc2c1 [1d]
